Screens from PubChem.
Most compounds without a hit are left out; they make up all but 16% or so of the library.
miR-21 FLuc – raises the signal of a miR-21 reporter; HeLa miR-21 FLuc reporter, luciferase, 48 h; Potency, µM (top dose mostly 38.3 µM), for inactives: at the highest dose reporter change, positive = more light; AID 2288; 340,000 tested, under 10 active; active = well fitted rising curve with a large enough effect; inconclusive = small, poorly fitted or top-dose-only effect; inactive = no such curve, though single readings can be large or run the other way;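 note: % of control where 0% means no effect; miR-21 action dims this reporter so a rising signal means less miR-21 action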
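HeLa miR-21-FLuc reporter line, endogenous miR-21; 2000 cells/well in DMEM/10% FBS; compound titration up to ~40uM final, 48 h, 37 degree Celsius; luciferase detection reagent, 15 min lysis, CCD luminescence.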
TDP1 inh – blocks human tyrosyl-DNA phosphodiesterase 1; recombinant TDP1, AlphaScreen DNA substrate cleavage; Potency, µM (doses to about 130 µM), without a hit: at the top dose activity change, negative = inhibition, actives largely listed as inhibitors; 0.28% of 350,000 active; AID 485290; also: potency is read from the fitted curve at half-maximal effect; % is scaled to controls: 0 for no effect and ±100 for the full control effect; nearly all actives have a fitted effect of over 40% in size
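Tdp1 1 nM final; 15 min RT w/ cpd; substrate 15 nM, 5 min; beads 10 ug/ml, 10 min; AlphaScreen read. Neg ctrl: no enzyme.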
uPA surface inh – cell surface uPA generation inhibition; cell surface uPA generation assay, qHTS; Potency, µM (top dose mostly 38.3 µM), without a hit: at the top dose activity change, negative = inhibition, most hits filed as inhibitors; 0.31% of 330,000 active; AID 540303; active = well fitted inhibition curve with a large enough effect; inconclusive = small, poorly fitted or top-dose-only effect; inactive = no such curve, though single readings can be large or run the other way; tested in mouse RAW 264.7 cells; also: potency is read from the fitted curve at half-maximal effect; % is scaled to controls: 0 for no effect and ±100 for the full control effect; nearly all actives have a fitted effect of over 55% in size
TDP1 cell CPT – growth inhibition of DT40 Tdp1-/-;hTDP1 cells with camptothecin (screen for TDP1 inhibitors). chicken DT40 Tdp1-/-;hTDP1 cells + 20 nM CPT, ATP luminescence, 48 h. Potency, µM (titrated, usually from 46.2 µM), without a hit: at the highest dose activity change, negative = growth inhibition, usual class: inhibitors. 12% of 420,000 active; also: potency is read from the fitted curve at half-maximal effect; % is scaled to controls: 0 for no effect and ±100 for the full control effect; nearly all actives have a fitted effect of over 55% in size
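Chicken DT40 Tdp1-/- cells stably complemented with human TDP1 were seeded at 400 cells/well in medium containing 20 nM camptothecin, exposed to pin-transferred compounds, and grown at 37 °C for at least 48 hr. Viability was read as ATP luminescence.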
TDP1 cell noCPT – qHTS for Inhibitors of human tyrosyl-DNA phosphodiesterase 1 (TDP1): qHTS in cells in absence of CPT; DT40 Tdp1-/- hTDP1 cells, no CPT, ATP luminescence, 48 h; Potency, µM (series often up to 46.2 µM), for the others: at the top dose activity change, negative = growth inhibition, usual class: inhibitors; 15% of 420,000 active; AID 686978, 2013; also: potency is read from the fitted curve at half-maximal effect; % is scaled to controls: 0 for no effect and ±100 for the full control effect; nearly all actives have a fitted effect of over 55% in size
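Compound effects on proliferation are scored in DT40 Tdp1-/-;hTDP1 cells in the absence of CPT. ATP levels (CellTiter-Glo luminescence) are recorded after a ≥48 hr, 37 °C incubation.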
Starred values were filed as active, the others as inactive; ? = inconclusive; nt = not tested or not shown; [ ] = remark or other dose. Unless noted, calls follow the shape of the dose curve; as a rule, active = well fitted curve in the direction sought with a large enough effect; inconclusive = small, poorly fitted or top-dose-only effect, or another doubt; inactive = no such curve, though single readings can be large; an effect the other way counts as inactive or inconclusive.

no. | molecule | uPA surface inh | TDP1 inh | TDP1 cell CPT | TDP1 cell noCPT | miR-21 FLuc
1 | O=C(CCc1nc2ccccc2c(=O)[nH]1)NNC(=O)c1cccc(Cl)c1 | 4.9% | -7.2% | -1.1% | -4.8% | nt
2 | C=CCOc1ccc(CN(C)C(=O)CNC(=O)c2ccc(-c3ccccc3)cc2)cc1 | ? | nt | ? | 20.6µM* | 22.7%
3 | CCOc1ccc(CN(C)C(=O)CNC(=O)c2ccccc2)cc1 | -9.4% | nt | -18.6% | 5.0% | -3.8%
4 | CCOc1ccc(CN(C)C(=O)CNC(=O)Cc2cccc3ccccc23)cc1 | -1.3% | 10.9% | ? | 23.1µM* | 9.9%
5 | CCc1ccc([C@@H]2CC=C(C(=O)O)[C@H](c3cccc(Cl)c3)N2S(=O)(=O)c2ccc(C)cc2)cc1 | 1.0% | 2.9% | -21.1% | -24.5% | nt
6 | COCCn1c(=O)c(-c2cccc(C#N)c2)nc2cnc(OC)nc21 | nt | nt | -4.1% | -0.6% | nt
7 | COc1cc2cc(C(c3nnnn3C3CCCCC3)N(C)C3CCCCC3)c(=O)[nH]c2cc1OC (configuration not stated) | nt | 6.3% | 23.1µM* | ? | 6.0%
8 | Cc1ccc(C(c2nnnn2C2CCCCC2)N(C)C2CCCCC2)cc1 (configuration not stated) | 6.5% | 0.0% | 23.1µM* | 23.1µM* | -4.7%
9 | COc1cc2cc(C(c3nnnn3C3CCCC3)N(C)C3CCCCC3)c(=O)[nH]c2cc1OC (configuration not stated) | nt | 4.7% | 15.8µM* | 25.1µM* | 0.5%
10 | CC(NC(=O)c1ccccc1F)C12CC3CC(CC(C3)C1)C2 (configuration not stated) | -10.1% | -10.2% | 20.6µM* | ? | nt
11 | COc1cccc(C2c3[nH]c4ccccc4c3C[C@H]3C(=O)N(c4ccccc4C(=O)N4CCCC4C(=O)O)C(=O)N23)c1 (some centres not stated) | -3.3% | nt | 2.7% | -3.7% | 0.8%
12 | Cc1ccc(NC(=O)CSc2ncc3c(n2)-c2ccc(Cl)cc2N(C)S3(=O)=O)cc1F | nt | 5.3% | 23.1µM* | ? | -1.1%
13 | Cc1ccc(NC(=O)CSc2ncc3c(n2)-c2ccccc2N(C)S3(=O)=O)c(Cl)c1 | nt | 0.0% | 0.731µM* | 0.651µM* | 23.1%
14 | CN1c2cc(Cl)ccc2-c2nc(SCC(=O)Nc3ccc(F)cc3F)ncc2S1(=O)=O | nt | -5.3% | 23.1µM* | 16.4µM* | 3.1%
15 | Cc1ccc(S(=O)(=O)NCCc2nnc(SCc3cccnc3)n2C)cc1 | -0.2% | 15.2% | -1.7% | -4.5% | 13.5%
16 | CCOc1ccc(-c2nonc2NC(=O)c2ccco2)cc1 | 11.2% | 4.7% | 9.0% | 8.8% | -4.1%
17 | CN(Cc1cccs1)C(=O)Cn1cnc2cc([N+](=O)[O-])ccc2c1=O | 29.8% | 0.0% | ? | -12.4% | 2.9%
18 | COc1ccc(-c2onc(C)c2C)cc1S(=O)(=O)N(C)Cc1ccco1 | nt | 5.3% | ? | ? | -0.9%
19 | CC(=O)Nc1ccc(-c2ccc(NC(C)=O)cc2)cc1 | 2.3% | -1.6% | 2.8% | 14.8% | -15.9%
20 | C=CC[n+]1c(-c2ccc(C)cc2)csc1Nc1ccc(NC(C)=O)cc1 | 7.08µM* | 10.3% | ? | ? | ?
21 | C=CC[n+]1c(-c2ccc(OC)cc2)csc1NNC(=O)Nc1ccccc1 | -0.9% | 10.1% | 7.31µM* | 5.17µM* | 5.9%
22 | COc1ccc(Cc2nc(C(=O)Nc3ccccc3)cs2)cc1 | 1.4% | -7.5% | -9.9% | ? | -21.4%
23 | COc1ccc(CNc2nc3c(c(=O)n(Cc4ccc(Br)cc4)c(=O)n3C)n2C)cc1 | -0.5% | 4.7% | ? | 20.6µM* | -3.7%
24 | Cn1c(=O)n(Cc2ccc(Cl)cc2)c(=O)c2c1nc1n2CCN1Cc1ccco1 | 3.7% | 6.0% | ? | 14.6µM* | -3.4%
25 | CC1CN(c2nc3c(c(=O)n(Cc4ccc(Cl)cc4)c(=O)n3C)n2C)CC(C)O1 (configuration not stated) | 2.2% | 1.9% | ? | 25.9µM* | -3.3%
26 | Cn1c(NCc2ccco2)nc2c1c(=O)n(Cc1ccc(Br)cc1)c(=O)n2C | 3.7% | 4.3% | ? | ? | 3.0%
27 | Cn1c(N2CCCC2)nc2c1c(=O)n(Cc1ccc(Cl)cc1)c(=O)n2C | 1.7% | 2.0% | ? | ? | -8.7%
28 | Cn1c(NCc2ccco2)nc2c1c(=O)n(Cc1ccc(Cl)cc1)c(=O)n2C | -7.7% | -9.3% | ? | 18.4µM* | -2.4%
29 | O=C(Nc1ccccc1OC(F)F)c1oc2ccccc2c1COc1ccccc1 | 10.5% | 0.0% | 2.2% | -26.9% | -6.9%
30 | Cc1cc(NC(=O)CSCC(=O)N2CCN(c3cccc(C)c3C)CC2)no1 | 2.3% | 2.1% | ? | -27.9% | nt
31 | Cc1cccc(Cn2c(=O)c3c(nc4n3CCN4Cc3ccco3)n(C)c2=O)c1 | 4.8% | -2.5% | 20.6µM* | 20.6µM* | -0.6%
32 | Cc1cccc2cc3c(nc12)SC(=NCC1CCCO1)N(Cc1ccco1)C3 (configuration not stated) | -7.6% | 3.1% | ? | 23.1µM* | ?
33 | Cc1ccc2nc3c(cc2c1)CN(Cc1ccco1)C(=NCC1CCCO1)S3 (configuration not stated) | -1.9% | 2.6% | ? | ? | -0.7%
34 | N#C/C(=C\c1ccc(OCc2ccc(Cl)cc2Cl)cc1)c1nc2ccccc2[nH]1 | nt | 0.4%[12.3 µM] | 16.4µM* | 20.6µM* | -7.5%
35 | COc1cc(/C=C(\C#N)c2nc3ccccc3[nH]2)cc(Cl)c1OCc1ccccc1Cl | nt | 0.6% | 7.31µM* | 18.4µM* | -3.3%
36 | N#C/C(=C/c1ccc(OC(=O)c2ccc(Br)s2)cc1)c1nc2ccccc2[nH]1 | 3.6% | nt | ? | 23.1µM* | nt
37 | Cc1ccc([C@@H]2CC=C(C(=O)O)[C@H](c3cccc(Cl)c3)N2S(=O)(=O)c2ccccc2C)cc1 | -4.1% | 3.7% | 0.3% | -9.4% | nt
38 | CCC(c1nnnn1C1CCCC1)N1CCC(C(N)=O)CC1 (configuration not stated) | 6.9% | -6.3% | 4.3% | -3.3% | -2.5%
39 | CC(C)=CCN1CCN(Cc2cc(CC(C)C)n[nH]2)CC1CCO (configuration not stated) | -3.7% | 9.5% | -15.8% | -10.1% | 0.1%
40 | Cc1cc(C)nc(SCC(=O)Nc2ncc(Cc3cccc(Cl)c3)s2)n1 | -1.1% | 0.0% | ? | 18.4µM* | -6.1%
41 | COc1ccccc1CCn1cnc2c3cc(C)ccc3n(C)c2c1=O | 2.7% | -2.9% | 18.4µM* | 11.6µM* | 0.9%
42 | COc1ccc2c(c1)c1ncn(CCN3CCCC3)c(=O)c1n2C | nt | 2.9% | -1.1% | 1.4% | -9.0%
43 | S=C(NCc1cccs1)NCC1CCCO1 (configuration not stated) | nt | 2.7% | 26.9% | -8.0% | -5.1%
44 | O=C(COC(=O)CCSc1ccccc1)Nc1cc(F)ccc1F | 1.8% | -3.8% | 2.1% | -2.4% | 1.8%

In another format: entries from further up.
[37] Cc1ccc([C@@H]2CC=C(C(=O)O)[C@H](c3cccc(Cl)c3)N2S(=O)(=O)c2ccccc2C)cc1
[38] CCC(c1nnnn1C1CCCC1)N1CCC(C(N)=O)CC1 (configuration not stated)
[39] CC(C)=CCN1CCN(Cc2cc(CC(C)C)n[nH]2)CC1CCO (configuration not stated)
[40] Cc1cc(C)nc(SCC(=O)Nc2ncc(Cc3cccc(Cl)c3)s2)n1
[41] COc1ccccc1CCn1cnc2c3cc(C)ccc3n(C)c2c1=O

entry no.	37	38	39	40	41
uPA surface inh	-4.1%	6.9%	-3.7%	-1.1%	2.7%
TDP1 inh	3.7%	-6.3%	9.5%	0.0%	-2.9%
TDP1 cell CPT	0.3%	4.3%	-15.8%	?	18.4µM*
TDP1 cell noCPT	-9.4%	-3.3%	-10.1%	18.4µM*	11.6µM*
miR-21 FLuc	nt	-2.5%	0.1%	-6.1%	0.9%
